Measured values from patent publication US20030157026A1, “Photodynamic diagnosis and therapy for insulin-dependent diabetes mellitus” (priority 2001, published 2003).

How the values were obtained:
[1] = tested on: BB rats with onset of IDDM; assay: Test Example 4: X-ray (0.153 Å) diagnosis and therapy of IDDM in BB rats with the gold complex; details: 5 mg/kg i.v., 25 KeV
[2] = tested on: macrophages having infiltrated the Langerhans islets; assay: Test Example 2: electron microscopy of gold particles in pancreas sections after i.v. administration to BB rats with onset of IDDM; details: 5 mg/kg via tail vein, pancreas excised 1 hour after administration

Substance: mono-L-aspartyl chlorin e6-gold complex
- survival curve compared with untreated control group ([1]; 24 h later X-ray 0.153 Å): evidently prolonged or improved
- X-ray absorption image of the pancreas (distribution of the complex) ([1]; 24 h later coherent X-ray 0.153 Å, transcutaneously): accumulated in the Langerhans islets in the pancreas
- uptake of the gold complex (gold particles under electron microscope) [2]: uptaken selectively into the macrophages having infiltrated the Langerhans islets
